{"sequences": {"note": "The chains behind the UniProt entries cited, without tags or fusion partners.", "UniProt P46616, whole entry": "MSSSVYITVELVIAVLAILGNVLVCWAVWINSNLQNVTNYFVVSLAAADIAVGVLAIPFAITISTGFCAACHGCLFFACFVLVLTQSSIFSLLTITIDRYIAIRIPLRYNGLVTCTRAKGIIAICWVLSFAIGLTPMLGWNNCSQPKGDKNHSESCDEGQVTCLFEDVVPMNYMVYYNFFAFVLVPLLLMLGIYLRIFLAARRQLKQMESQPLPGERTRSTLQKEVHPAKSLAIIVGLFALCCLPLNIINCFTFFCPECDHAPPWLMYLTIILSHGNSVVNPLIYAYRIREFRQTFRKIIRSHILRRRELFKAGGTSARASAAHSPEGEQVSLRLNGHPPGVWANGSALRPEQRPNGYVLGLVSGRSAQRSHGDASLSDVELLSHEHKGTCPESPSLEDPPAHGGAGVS"}, "source": "patent US5736528A", "about": "“N^6 -(epoxynorborn-2-yl) adenosines as A1 adenosine receptor agonists” (priority 1995, dated 1998)", "key": {"A2 adenosine receptor": {"target": "T1, A2 adenosine receptor (Cavia porcellus, UniProt P46616)", "T1 construct": "from tissue; host or cells: guinea pig striatum membranes", "assay": "A2 receptor binding with [3H]CGS 21,860 in striatum membranes (Table 5)", "parameters": "species or system guinea pig"}, "A2 receptor": {"target": "T2, A2 receptor (Cavia porcellus, UniProt P46616)", "T2 construct": "isolated perfused guinea pig heart; from tissue; host or cells: isolated perfused guinea pig heart (coronary circulation)", "assay": "Antagonism of A2 receptor-mediated coronary vasodilation (coronary conductance) caused by adenosine, isolated perfused heart", "parameters": "species or system guinea pig", "source_text": ". The values are the mean±SEM from five guinea pig hearts. […]\n1. Functional studies. […]\nPotency of various alkylxanthines to antagonize A2\nof a maximum coronary vasodilation caused by adenosine. Values in […]"}}}
{"compound": "CCCn1c(=O)c2[nH]c(C3CCCC3)nc2n(CCC)c1=O", "note": "[CPX, 8-cyclopentyl-1,3-dipropylxanthine, reference compound]", "values": [{"measurement": "Ki", "setting": "A2 adenosine receptor", "result": "63 ± 5.4", "unit": "nM"}, {"measurement": "IC50", "setting": "A2 receptor", "result": 1500, "unit": "nM"}]}
